Measurements from patent US20250099433A1, “COMPOSITION AND METHOD FOR TREATMENT OF GRAM NEGATIVE BACTERIAL INFECTION” (The Research Foundation for the State University of New York, priority 2021, published 2025).

The chains behind the UniProt entries cited, without tags or fusion partners. Residues count along the entry.
UniProt P47205, 1-299: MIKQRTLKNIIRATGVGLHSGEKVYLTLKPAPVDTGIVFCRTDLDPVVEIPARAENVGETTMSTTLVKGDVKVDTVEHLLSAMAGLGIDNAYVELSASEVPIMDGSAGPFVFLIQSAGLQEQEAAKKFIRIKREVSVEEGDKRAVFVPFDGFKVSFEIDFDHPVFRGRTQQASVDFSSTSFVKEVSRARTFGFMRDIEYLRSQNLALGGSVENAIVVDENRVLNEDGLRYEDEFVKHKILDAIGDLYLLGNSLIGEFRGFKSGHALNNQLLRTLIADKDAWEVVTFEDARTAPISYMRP

What was measured:
[1] = target: T1, paLpxC (Pseudomonas aeruginosa (strain ATCC 15692 / DSM 22644 / CIP 104116 / JCM 14847 / LMG 12228 / 1C / PRS 101 / PAO1), UniProt P47205); format: binding; conditions: for tR (min) Fluorescence assay: 37° C., tR = 1/koff; for ΔF as % of the change when free enzyme was added: EI complex diluted into 200 nM PT855
[2] = target: T1, paLpxC; test: Spin column (Penefsky) residence time assay on paLpxC; format: binding; conditions: 37° C., first-order fit
Experimental: FIG. 14. Spin-column assay. A spin-column assay was used to quantify the residence time of inhibitors on paLpxC at 37° C. […] Samples were then subjected to size exclusion chromatography at different times using a Spin-Trap G-25 column (800×g for 2 min). […] Preincubated solutions of enzyme (10 μM) and inhibitor (10 or 20 μM) were diluted 200-fold into a solution of PT855 (1 μM) at 37° C. Aliquots of this solution were withdrawn at various times and subjected to centrifugal gel filtration chromatography using PD SpinTrap™ G-25 columns. The fluorescence of the eluate was quantified, and the data were fit to a single exponential equation to obtain koff (FIG. 14, Tables 4 and 5).
Inhibitor Residence Time Measurements using a Spin Column Assay. […] Subsequently, 10 μL of the incubation mixture was diluted into 2 mL of the same buffer containing 1 μM of PT855, and 100 μL of this mixture was then aliquoted at different time points and loaded onto a PD SpinTrap™ G-25 column (Cytiva) that had been equilibrated with buffer prior to sample loading. […] The fluorescence intensities corresponding to loading diluted EI without the fluorescent competitor and loading the competitor alone were measured separately to determine the dynamic range and endpoint of the assay. […] Rates were calculated by fitting the change in fluorescence intensity over time to a one-phase association equation in GraphPad Prism.

SMILES | tR (min) Fluorescence assay [1] | ΔF as % of the change when free enzyme was added [1] | tR (min) Fluorescence assay ([1]; listed as PT91) | k (min^−1), spin-column assay [2]
COc1ccc(-c2ccn(CCC(C)(C(=O)NO)S(C)(=O)=O)c(=O)c2)cc1 (racemic) [PT902, N-hydroxy-4-(4-(4-methoxyphenyl)-2-oxopyridin-1(2H)-yl)-2-methyl-2-(methylsulfonyl)butanamide] | 15 min and 15.0 ± 1.5 min | 52% |  | 
CC(CCn1ccc(-c2ccccc2)cc1=O)(C(=O)NO)S(C)(=O)=O (racemic) [PT901, N-hydroxy-2-methyl-2-(methylsulfonyl)-4-(2-oxo-4-phenylpyridin-1(2H)-yl)butanamide] | 5 min and 5.1 ± 0.2 min and 5.0 ± 0.2 min | ~98% | 5.1 min | 0.14 ± 0.06 min⁻¹

Several values for one entry are separate records, joined by “and”; a condition that tells them apart may be missing. Equal entries are not always repeated. Where two headings read alike, the source gives them in different places.
